Measurements taken from patent US8394408B2, “Gastric retentive extended-release dosage forms comprising combinations of a non-opioid analgesic and an opioid analgesic” (Depomed, Inc., priority 2008, dated 2013).

Assay: Oxycodone degradation (DHOXY/OXY), effect of antioxidants, 40° C., 75% RH open dish 8 days
Type: physicochemical
Conditions: ER single layer tablets, HPC binder

Compound | Effect of antioxidant on degradation of oxycodone
O=C(O)CC(O)(CC(=O)O)C(=O)O | reduce the degradation of oxycodone
O=S([O-])S(=O)(=O)[O-].[Na+].[Na+] | reduce the degradation of oxycodone
